{
  "sequences": {"note": "Protein sequences, listed by entry. Tags and fused reporters are not part of them.", "UniProt P20309, whole entry": "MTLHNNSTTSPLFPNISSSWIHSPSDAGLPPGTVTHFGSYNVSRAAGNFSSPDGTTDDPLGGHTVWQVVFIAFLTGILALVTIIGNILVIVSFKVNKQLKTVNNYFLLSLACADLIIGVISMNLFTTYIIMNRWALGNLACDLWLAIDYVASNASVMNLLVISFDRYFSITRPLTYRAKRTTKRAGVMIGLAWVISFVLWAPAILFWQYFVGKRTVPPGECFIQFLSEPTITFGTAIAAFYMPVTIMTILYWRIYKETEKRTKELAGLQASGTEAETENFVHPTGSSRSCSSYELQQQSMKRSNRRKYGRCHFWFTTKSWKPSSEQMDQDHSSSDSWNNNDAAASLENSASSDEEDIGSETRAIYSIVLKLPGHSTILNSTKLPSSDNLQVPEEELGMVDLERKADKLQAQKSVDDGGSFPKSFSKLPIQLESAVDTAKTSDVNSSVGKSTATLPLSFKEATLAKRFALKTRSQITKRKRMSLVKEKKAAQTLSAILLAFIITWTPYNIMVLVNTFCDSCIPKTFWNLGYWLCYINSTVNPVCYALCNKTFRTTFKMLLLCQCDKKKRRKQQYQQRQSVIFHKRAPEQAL"},
  "source": "ChEMBL document CHEMBL1144548",
  "about": "“Dioxane and oxathiane nuclei: suitable substructures for muscarinic agonists” (Bioorg Med Chem, 2007)",
  "data": [
    {"target": "Muscarinic acetylcholine receptor M3 (Homo sapiens, UniProt P20309)", "assay_type": "functional, cell-based, CHO", "units": {"EC50": "nM"}, "values": [
      {"smiles": "C[C@H]1COC[C@@H](C[N+](C)(C)C)O1", "EC50": 407},
      {"smiles": "CC1COCC(C[N+](C)(C)C)O1", "note": "(racemic; form 1)", "EC50": 275},
      {"smiles": "CC1COCC(C[N+](C)(C)C)O1", "note": "(racemic; form 2)", "EC50": 56200}
    ]}
  ]
}
